Apparent affinities of Ab-91 variants for a coronavirus HR2 peptide

Reference: Engelhart et al. 2022, doi:10.1038/s41597-022-01779-4. File: FLAb, binding data.

Target peptide (SARS-CoV-2 spike, HR2 region): PDVDLGDISGINAS

Parent: Ab-91, a human scFv built as VL, a (GGGGS)3 linker, VH. Only the CDRs of the heavy chain vary.
VL: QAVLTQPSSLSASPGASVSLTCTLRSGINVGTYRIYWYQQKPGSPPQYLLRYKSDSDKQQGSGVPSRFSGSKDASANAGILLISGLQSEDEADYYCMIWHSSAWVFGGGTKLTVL
VH: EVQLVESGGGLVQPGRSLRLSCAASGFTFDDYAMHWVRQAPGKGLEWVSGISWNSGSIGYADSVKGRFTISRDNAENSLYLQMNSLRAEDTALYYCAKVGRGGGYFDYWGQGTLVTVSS

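The starting antibody came from a phage panning campaign against this peptide. Variants in AAYL51 differ from the parent at up to three CDR positions; double and triple changes were sampled at random. AlphaSeq pools MATa yeast showing the antibodies with MATalpha yeast showing the peptide. The frequency of each diploid, read from paired DNA barcodes, reflects how well the two displayed proteins bind. The ratio of observed to expected reads was calibrated, replicate by replicate, on BCL2-family standards whose Kd was known from biolayer interferometry. There are three technical replicates.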

Each variant is given by its three heavy chain CDRs, as the data file delimits them; those of the parent are GFTFDDYAMH, GISWNSGSIGYADSVK, VGRGGGYFDY.
The read-out is the apparent dissociation constant on a log10 scale (nM): the lower, the stronger.
Averages over replicates are reported, and they cover detected replicates only.
A pair that was not seen in any replicate is written "nd"; this usually means weak binding, but a binder can also be missed.

"log10 Kd (nM), mean",detected,signal with controls,CDR-H1,CDR-H2,CDR-H3
5.56,3 of 3,7 of 9,VFTFDQYAMH,GISWNSGSIGQADSVK,VGRGGGYFDY
3.01,3 of 3,4 of 9,IFTFDDYGMH,GISWNSGSIGYADSVK,VGRGDGYFDY
5.96,1 of 3,6 of 9,GETFDDYAMH,GISKNSGSIGYADSVK,HGRGGGYFDY
nd,0 of 3,0 of 9,GFTFDDYAMH,GISWNSGSIGYAHSVK,VGRGGGYPMY
3.21,1 of 3,1 of 9,GFTFFDYAMH,GISWNSSSIGYADSVK,VGRGDGYFDY
4.10,2 of 3,1 of 9,GFSFDDKAMH,GISWNSGSIGYATSVK,VGRGGGYFDY
nd,0 of 3,0 of 9,HFTFDDQAMH,GISWNSGSIGYGDSVK,VGRGGGYFDY
nd,0 of 3,1 of 9,GFTFDDPAMH,GISWNSGCIGYADEVK,VGRGGGYFDY
4.72,1 of 3,0 of 9,GETFDDYAMH,GISWNSGSSGYADSVK,VGRGGWYFDY
nd,0 of 3,2 of 9,GFTFDDYAMH,GISSNSGSIGYADSSK,VGRGIGYFDY
nd,0 of 3,0 of 9,GFWFDDYAMH,GISWKSGSIGYADSVK,VGRGGGYFDY
5.19,3 of 3,7 of 9,GFTFDDYAMH,GISWNSGMIGYADSVS,LGRGGGYFDY
5.36,3 of 3,6 of 9,GFTWDDYAMH,GISWNSGTIKYADSVK,VGRGGGYFDY
5.14,2 of 3,7 of 9,GFSFDDYAMH,GIPWNSGSIAYADSVK,VGRGGGYFDY
nd,0 of 3,0 of 9,GKTYDDYAMH,VISWNSGSIGYADSVK,VGRGGGYFDY
nd,0 of 3,1 of 9,GFTFTDEAMH,GISWNSGSIGYADSVV,VGRGGGYFDY
nd,0 of 3,0 of 9,PFTFDDYAMH,GISWNSGSMGYAWSVK,VGRGGGYFDY
nd,0 of 3,0 of 9,FFTFDDYAMH,GIHWNSGSIGYADSVK,VGRGGGYFDA
4.71,3 of 3,4 of 9,HFTFDDYAMH,GISWNSGSIKYADSVK,VGRGGGYFDY
nd,0 of 3,0 of 9,GFTFDDYAMH,GISWNSGSIDYFDSVK,VGRGGGYFDY
5.08,3 of 3,3 of 9,GFTFDDYAMH,GICWNSGSIGYADSVK,VGRGFGYFDY
nd,0 of 3,1 of 9,GFTFDDYAMH,GIFWNSGSIGYADSVK,VPRGGGYFDY
4.16,2 of 3,2 of 9,GFTGDDYAMH,GISKNSGSIGYADSVK,VGRGCGYFDY
4.51,2 of 3,1 of 9,IFTFDDNAMH,GISWNSGSIGYADSVK,VGRGGKYFDY
nd,0 of 3,0 of 9,GFTFDDYAMC,GISWNSGSIGQADSVK,VGRGGGYFWY
4.52,2 of 3,5 of 9,GFTFDDYAMH,GISWNSGSSGYADSVK,VGRGGGWFWY
nd,0 of 3,1 of 9,GFTFDDRAMH,GISWNSGSPGYADSVK,VGRGGKYFDY
4.99,1 of 3,4 of 9,GFQFDDYAMH,EQSWNSGSIGYADSVK,VGRGGGYFDY
nd,0 of 3,2 of 9,GFVRDDYAMH,GISWNSGSIGYADSVK,VGRGGGYFVY
5.48,2 of 3,4 of 9,GFTFDDYAMH,GIAWNSMSIGYADSEK,VGRGGGYFDY
5.12,2 of 3,8 of 9,GFTFDDYAMH,GISWNSGSIGYADEVK,VGRGGGYVDY
nd,0 of 3,0 of 9,GQTFDDYAMH,GISCNSGSIGYADSVK,VQRGGGYFDY
5.51,1 of 3,2 of 9,YFTQDDYAMH,GISWNSGSIGYADSVK,VGRGRGYFDY
5.33,1 of 3,2 of 9,GFQFDDYAMH,GISWNSGSIGYADSVK,VGRLGGGFDY
4.03,3 of 3,0 of 9,GFTPDDYAMH,GISWNSGSWGYADSVK,VGRGGGHFDY
3.69,1 of 3,1 of 9,GFTFDDYAMH,GISWNSGSIGYAQSDK,VGRGTGYFDY
nd,0 of 3,0 of 9,GFTFDDYAMH,GISWNSGSIGYADSVK,VGRGPGYFDM
5.42,3 of 3,5 of 9,GFTFDDYAFH,GISWNSESIGYADSVK,VGRGGGYFDY
5.40,3 of 3,1 of 9,GFTFDDYAMS,SIHWNSGSIGYADSVK,VGRGGGYFDY
5.16,1 of 3,2 of 9,GFTADDYAMH,GISWNSGSIGYADSVK,VGRGGMYCDY
5.12,2 of 3,4 of 9,GFTFDDYAMH,GISKCSGTIGYADSVK,VGRGGGYFDY
3.62,1 of 3,2 of 9,GFTFDDYAMH,GISWNSGSIGYAPSVK,SGRGGGYFDY
3.93,2 of 3,3 of 9,GFTFDDYAMH,KISWNSGSIGYADSVK,IGRGGGYFDY
5.22,1 of 3,1 of 9,GFTFDHYAMH,GISWLSGSIGYACSVK,VGRGGGYFDY
1.55,3 of 3,0 of 9,GFTFQDYAMH,GISTNSGSIGYLDSVK,VGRGGGYFDY

Repeated from above, the 5 best binders with a signal in all replicates:

CDR-H1	CDR-H2	CDR-H3	log10 Kd (nM), mean	detected	signal with controls
GFTFQDYAMH	GISTNSGSIGYLDSVK	VGRGGGYFDY	1.55	3 of 3	0 of 9
IFTFDDYGMH	GISWNSGSIGYADSVK	VGRGDGYFDY	3.01	3 of 3	4 of 9
GFTPDDYAMH	GISWNSGSWGYADSVK	VGRGGGHFDY	4.03	3 of 3	0 of 9
HFTFDDYAMH	GISWNSGSIKYADSVK	VGRGGGYFDY	4.71	3 of 3	4 of 9
GFTFDDYAMH	GICWNSGSIGYADSVK	VGRGFGYFDY	5.08	3 of 3	3 of 9

Parent in this assay: reference entry 1.86, copy in this library 0.88.
Nonspecific signal, from three strains lacking the peptide, appeared in 21% of pairings of library AAYL51, centred on 4.54 (5% of these signals below 3.26); values are not corrected for it. For each scFv, signals with the empty controls are counted beside the result.